The text below walks through data of US5795861A, “Methods for regulating gastrointestinal motility” (Amylin Pharmaceuticals Inc., priority 1995, dated 1998).

Bounds are passed on as bounds.

The nature of data set [1]: solubility and stability compared to human amylin. In kind it is physicochemical.
A short description of data set [2]: plasma AC-0137 levels after IV bolus or infusion (clinical study). In kind it is in vivo, human. As to conditions: continuous IV infusion. An excerpt: Subjects in each dose group underwent a two period crossover to examine intravenous (IV) bolus versus IV infusion of drug. Each period consisted of a three-day confinement to the study unit. On each occasion, the initial day of confinement was allowed for acclimatization to the study unit. The second and third days constituted an imbedded crossover of placebo versus active medication. […] An imbedded cross-over design for the administration of drug and placebo on Days 2 and 3 of this admission was employed in a manner similar to that used during the first admission. The six subjects assigned to the placebo group received placebo on each of the study days.
On study days, intravenous catheters were inserted at least 30 minutes prior to the start of the study. 15 minutes before dosing, the subjects took their usual insulin dose via subcutaneous injection. […] The infusion rate was designed to administer the assigned amount of drug over the two hour period. Thirty minutes later, the subjects ingested their normal breakfasts.

Data set [3] can be described thus: tripro-amylin plasma peaks in 14-day study. In kind it is in vivo, human. As to the method:
72 subjects with insulin-dependent diabetes mellitus participated in a 14-day clinical trial. Each subject was randomly assigned to one of four treatment groups, receiving placebo, 30, 100 or 300 μg tripro-amylin by subcutaneous injection three times a day for 14 days. The subjects also remained on their usual insulin regimen throughout the study. On days 1 (baseline), 7 and 14, standardized meal tolerance tests were performed.

As for `CC[C@H](C)[C@H](NC(=O)[C@@H]1CCCN1C(=O)CNC(=O)[C@H](Cc1ccccc1)NC(=O)[C@H](CC(N)=O)NC(=O)[C@H](CC(N)=O)NC(=O)[C@H](CO)NC(=O)[C@H](CO)NC(=O)[C@H](CCCNC(=N)N)NC(=O)[C@@H](NC(=O)[C@H](CC(C)C)NC(=O)[C@H](Cc1ccccc1)NC(=O)[C@H](CC(N)=O)NC(=O)[C@H](C)NC(=O)[C@H](CC(C)C)NC(=O)[C@H](CCCNC(=N)N)NC(=O)[C@H](CCC(N)=O)NC(=O)[C@@H](NC(=O)[C@H](C)NC(=O)[C@@H]1CSSC[C@H](NC(=O)[C@@H](N)CCCCN)C(=O)N[C@@H](CC(N)=O)C(=O)N[C@@H]([C@@H](C)O)C(=O)N[C@@H](C)C(=O)N[C@@H]([C@@H](C)O)C(=O)N1)[C@@H](C)O)C(C)C)C(=O)N[C@@H](CC(C)C)C(=O)N1CCC[C@H]1C(=O)N[C@@H](CO)C(=O)N[C@H](C(=O)N[C@@H](CC(N)=O)C(=O)N[C@H](C(=O)NCC(=O)N[C@@H](CO)C(=O)N[C@@H](CC(N)=O)C(=O)N[C@H](C(=O)N[C@@H](Cc1ccc(O)cc1)C(N)=O)[C@@H](C)O)C(C)C)[C@@H](C)O` [^18 Arg^25,28 Pro-h-amylin], the “solubility and stability characteristics” value in data set [1] was “more desirable solubility and stability characteristics”.
With `CC[C@H](C)[C@H](NC(=O)[C@@H]1CCCN1C(=O)CNC(=O)[C@H](Cc1ccccc1)NC(=O)[C@H](CC(N)=O)NC(=O)[C@H](CC(N)=O)NC(=O)[C@H](CO)NC(=O)[C@H](CO)NC(=O)[C@H](Cc1c[nH]cn1)NC(=O)[C@@H](NC(=O)[C@H](CC(C)C)NC(=O)[C@H](Cc1ccccc1)NC(=O)[C@H](CC(N)=O)NC(=O)[C@H](C)NC(=O)[C@H](CC(C)C)NC(=O)[C@H](CCCNC(=N)N)NC(=O)[C@H](CCC(N)=O)NC(=O)[C@@H](NC(=O)[C@H](C)NC(=O)[C@@H]1CSSC[C@H](NC(=O)[C@@H](N)CCCCN)C(=O)N[C@@H](CC(N)=O)C(=O)N[C@@H]([C@@H](C)O)C(=O)N[C@@H](C)C(=O)N[C@@H]([C@@H](C)O)C(=O)N1)[C@@H](C)O)C(C)C)C(=O)N[C@@H](CC(C)C)C(=O)N1CCC[C@H]1C(=O)N1CCC[C@H]1C(=O)N[C@H](C(=O)N[C@@H](CC(N)=O)C(=O)N[C@H](C(=O)NCC(=O)N[C@@H](CO)C(=O)N[C@@H](CC(N)=O)C(=O)N[C@H](C(=O)N[C@@H](Cc1ccc(O)cc1)C(N)=O)[C@@H](C)O)C(C)C)[C@@H](C)O` [AC-0137, ^25,28,29 Pro-h-amylin], the “time to levels approximating steady-state” value in data set [2] is at most 30 min. Moreover, the figures for the Tripro-amylin plasma peaks in data set [3] (30 micrograms 3 times daily s.c.), in data set [3] (100 micrograms 3 times daily s.c.) and in data set [3] (300 micrograms 3 times daily s.c.) were 22 ± 4 picomoles/liter, 44 ± 14 picomoles/liter and 173 ± 40 picomoles/liter, respectively.
Turning to `CC(C)C[C@H](NC(=O)[C@H](CCCNC(=N)N)NC(=O)[C@H](CCC(N)=O)NC(=O)[C@@H](NC(=O)[C@H](C)NC(=O)[C@@H]1CSSC[C@H](NC(=O)[C@@H](N)CCCCN)C(=O)N[C@@H](CC(N)=O)C(=O)N[C@@H]([C@@H](C)O)C(=O)N[C@@H](C)C(=O)N[C@@H]([C@@H](C)O)C(=O)N1)[C@@H](C)O)C(=O)N[C@@H](C)C(=O)N[C@@H](CC(N)=O)C(=O)N[C@@H](Cc1ccccc1)C(=O)N[C@@H](CC(C)C)C(=O)N[C@H](C(=O)N[C@@H](Cc1c[nH]cn1)C(=O)N[C@@H](CO)C(=O)N[C@@H](CO)C(=O)N[C@@H](CC(N)=O)C(=O)N[C@@H](CC(N)=O)C(=O)N[C@@H](Cc1ccccc1)C(=O)NCC(=O)N1CCC[C@H]1C(=O)N[C@H](C(=O)N[C@@H](CC(C)C)C(=O)N1CCC[C@H]1C(=O)N1CCC[C@H]1C(=O)N[C@H](C(=O)N[C@@H](CC(N)=O)C(=O)N[C@H](C(=O)NCC(=O)N[C@@H](CO)C(=O)N[C@@H](CC(N)=O)C(=O)N[C@H](C(=O)N[C@@H](Cc1ccc(O)cc1)C(N)=O)[C@@H](C)O)C(C)C)[C@@H](C)O)C(C)C)C(C)C` [^25 Pro^26 Val^28,29 Pro-h-amylin], the “solubility and stability characteristics” value in data set [1] is “more desirable solubility and stability characteristics”.
